In test [1] the target is PDHK2 (Homo sapiens, UniProt Q15119). Briefly: Saturation binding assay (Kd determination) by fluorescence polarisation, PDHK2. Conditions: read-out: Kd of binding to PDHK2; constant concentration (10 nM) of fluorescent binder, serial dilutions of PDHK2; tested form: HCl. How it is done:
Recombinant PDHK-2 protein was generated by infection of Hi5 insect cells with a baculovirus encoding an N-terminally his-tagged version of PDHK-2 (amino acids 10-407). Cells were infected at a MOI of 10 for 48 h. Cell pellets were harvested and extracted in 50 mM Tris (pH 8.0), 150 mM NaCl, 5 mM mercaptoethanol, 20 mM imidazole (pH 8.0) and standard protease inhibitors. Soluble protein was purified by affinity chromatography on a Ni-chelate column. PDHK-2 was eluted from the Ni-column using a 40-500 mM gradient of imidazole (pH 8.0). The resulting protein was >95% pure.
(§1) The assay buffer consisted of 20 mM potassium phosphate, pH 7.8, containing 1 mM CHAPS. A 10 mM stock solution of fluorescent binder A was prepared in DMSO and further diluted to 40 nM in assay buffer (final DMSO concentration 0.004%). PDHK2 was diluted over the concentration range 2 μM to 0.5 nM and PDHK4 from 8 μM to 2 nM. […] Polarization values were then determined in a BMG PolarStar plate reader.
(§2) Serial dilutions of PDHK were prepared over the final concentration range 500-0.49 nM for PDHK2 and 2000 to 1.95 nM for PDHK4 using halving dilutions. […] Plates were shaken, and, after incubation for 60 min, read in the Polarstar Galaxy, as described above for the competition assay. […]
Background: Polarisation of emitted light reports the rotation of a fluorescent probe.

The chains behind the UniProt entries cited, without tags or fusion partners.
UniProt Q16654, whole entry: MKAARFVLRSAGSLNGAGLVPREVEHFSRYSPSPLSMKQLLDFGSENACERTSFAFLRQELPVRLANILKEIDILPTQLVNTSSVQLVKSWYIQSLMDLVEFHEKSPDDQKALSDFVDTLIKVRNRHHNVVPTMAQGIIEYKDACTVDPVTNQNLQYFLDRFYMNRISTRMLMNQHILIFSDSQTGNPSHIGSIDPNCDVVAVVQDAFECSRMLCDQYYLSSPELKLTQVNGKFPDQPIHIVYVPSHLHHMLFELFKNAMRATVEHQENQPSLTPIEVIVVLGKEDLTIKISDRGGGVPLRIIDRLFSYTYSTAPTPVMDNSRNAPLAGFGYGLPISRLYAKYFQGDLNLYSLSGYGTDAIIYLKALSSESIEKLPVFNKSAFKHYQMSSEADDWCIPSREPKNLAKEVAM

Test [2] deals with PDHK4 (Homo sapiens, UniProt Q16654). Description: Saturation binding assay (Kd determination) by fluorescence polarisation, PDHK4. Conditions: read-out: Kd of binding to PDHK4; constant concentration (10 nM) of fluorescent binder, serial dilutions of PDHK4; tested form: HCl. The method, then:
Recombinant PDHK-4 protein was generated by expression in BL21pLysS bacterial cells. Full length PDHK-4 amplified from human skeletal muscle cDNA library (Clontech) was cloned into an N-terminally his-tagged pET vector (Novagen) and transformed into BL21 cells (BL21 plys5, Novagen). Cultures were allowed to reach an OD600 of 0.6 before induction of PDHK expression by the addition of 1 mM IPTG. The cultures were incubated for a further 5 h at 30° C. with 220 rpm shaking. Bacterial cell pellets were harvested and extracted as described above. PDHK-4 was purified by a batch method utilising Ni-NTA agarose beads (Quiagen). The PDHK-4 eluted by addition of 500 mM imidazole was ˜95% pure.
as §1, §2

Usually Kd stands for the constant that tells how readily two partners part at equilibrium.

As for `Cc1cc(C)n2c1C=C1C=CC(CCC(=O)N3C[C@H](C)N(C(=O)[C@@](C)(O)C(F)(F)F)C[C@H]3C)=[N+]1[B-]2(F)F`, the Kd turned out to be 4.3 nM in test [1] and 61 nM in test [2].
